Experimental data from article PMC5988308, “Rhodanine derivatives as potent anti-HIV and anti-HSV microbicides” (PLoS ONE, 2018).

Test system: TZM-bl cells
Assay: Cytotoxicity on TZM-bl cells (XTT test)
Assay type: cell-based, human
Conditions: read-out: Citotoxicity (TZM-bl cells) CC50

Substance: maraviroc [reference compound]
- CC50: > 20 µM
